Antibody variant affinities, Ab-14 light chain, assay 1

The measurements come from Engelhart et al. 2022 (doi:10.1038/s41597-022-01779-4) through the FLAb antibody collection.

Binding partner: SARS-CoV-2 spike HR2 peptide, sequence PDVDLGDISGINAS.

Parent scFv Ab-14: VH joined to VL by a 15-residue (Gly4Ser)3 linker. Changes lie in the light chain CDRs alone.
VH: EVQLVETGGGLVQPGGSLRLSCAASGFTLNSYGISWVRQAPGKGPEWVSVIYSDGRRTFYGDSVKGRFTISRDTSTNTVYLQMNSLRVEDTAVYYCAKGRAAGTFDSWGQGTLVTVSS
VL: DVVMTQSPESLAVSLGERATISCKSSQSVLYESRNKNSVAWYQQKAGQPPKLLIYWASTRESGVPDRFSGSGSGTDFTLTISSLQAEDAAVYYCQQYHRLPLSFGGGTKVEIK

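The parent was found by panning a naive human phage display library on the peptide. In library AAYL50, one, two or three CDR residues were substituted; doubles and triples were drawn at random. In AlphaSeq, yeast of one mating type display the scFv and yeast of the other type display the target. Mating (16 h, 30 °C) was followed by selection of diploids and sequencing of their barcodes. Each replicate has its own calibration line, from reference interactions of the BCL2 family. The assay was run in three technical replicates.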

Substitutions are numbered in sequence along the VL above, starting at 1 (not Kabat). The Kd shown is the geometric mean over detected replicates; a lower Kd is a better binder. A pair that was not seen in any replicate is written "nd"; this usually means weak binding, but a binder can also be missed. Parent in this assay: reference entry 4.4 nM, copy in this library 48 nM.

changes,apparent Kd,replicates with signal
K24A N35G,nd,0 of 3
K24E N35Y S38D,4.4 µM,3 of 3
S25W Q27P N37A,10 nM,3 of 3
W56E R60G S62K,4.0 nM,3 of 3
W56C A57T E61C,290 nM,3 of 3
K24Y Q95M S103Y,4.1 µM,1 of 3
S26M N35A P101K,160 nM,2 of 3
R34C W56G L100Y,8.0 nM,3 of 3
S26Q T59Q Q96D,3.7 nM,3 of 3
S26P L30H T59W,180 nM,3 of 3
L30S S33Y,7.8 nM,3 of 3
L30D E61G P101I,480 nM,3 of 3
Q27F Y31A S33T,59 µM,2 of 3
V29S K36Q N37E,nd,0 of 3
R34H Q95W R99L,9.1 nM,3 of 3
Y97E H98I P101Q,16 nM,3 of 3
Y31P S38V R99Q,8.3 µM,1 of 3
S25Q E61R H98S,6.8 nM,3 of 3
A40F L100D P101L,1.6 µM,2 of 3
S28E Y31N A40D,nd,0 of 3
E61C L102V,550 nM,3 of 3
V29L Y97H H98C,5.6 nM,3 of 3
S25V A40W A57M,nd,0 of 3
Q27M E32P V39M,8.9 nM,3 of 3
E61P Y97E,370 nM,3 of 3
S38P A40W W56H,nd,0 of 3
S26Y N35T Q96N,nd,0 of 3
S25I A57K E61Y,7.3 nM,3 of 3
N37Y R60S R99E,nd,0 of 3
S26Y W56N,790 pM,3 of 3
S33I P101V L102Q,nd,0 of 3
K36L R60Q,13 nM,3 of 3
K36W E61R H98E,260 nM,3 of 3
K24W S38W H98E,7.3 µM,1 of 3
L30S S62L R99D,6.3 nM,3 of 3
E32V S33Q P101D,650 nM,3 of 3
V29M E32M S33H,1.9 µM,1 of 3
K24R V29L E32W,12 nM,3 of 3
Q27I L30E E61I,6.3 nM,3 of 3
S26R Q95S R99M,14 nM,3 of 3
S26K N35H V39P,nd,0 of 3
Y31S K36I,5.5 nM,3 of 3
Y31I A57C H98G,400 nM,2 of 3
S28V S58G T59G,98 µM,3 of 3
E32C K36D L100H,11 µM,2 of 3
S25A E32H S62E,58 nM,3 of 3
S28W R60A L100N,nd,0 of 3
K24T S25F S26E,1.3 nM,3 of 3
S26G S62N P101Q,210 nM,3 of 3
R34S W56D H98W,1.0 nM,3 of 3

Picked from the list: the 8 lowest averages where every replicate gave a value.

| changes | apparent Kd | replicates with signal |
|---|---|---|
| S26Y W56N | 790 pM | 3 of 3 |
| R34S W56D H98W | 1.0 nM | 3 of 3 |
| K24T S25F S26E | 1.3 nM | 3 of 3 |
| S26Q T59Q Q96D | 3.7 nM | 3 of 3 |
| W56E R60G S62K | 4.0 nM | 3 of 3 |
| Y31S K36I | 5.5 nM | 3 of 3 |
| V29L Y97H H98C | 5.6 nM | 3 of 3 |
| Q27I L30E E61I | 6.3 nM | 3 of 3 |

As a blank, each scFv also met three strains without target: over library AAYL50, 18% of these pairings were detected, typically at 15 µM and seldom below 970 nM.